The values below come from paper PMC10330721, “Chemo-enzymatic synthesis and biological activity evaluation of propenylbenzene derivatives” (Frontiers in Microbiology, 2023).

The series in a line: Haemolytic activity assay. As to conditions: human red blood cells (RBCs) from healthy donors, 37°C, read-out: Percentage of haemolysis. In kind it is cell-based.

In the case of `CC=Cc1ccccc1` [2a, prop-1-en-1-yl benzene], the hemolysis at 1 h, 10 µM (10 µM) was 1.27 ± 0.319%. For the setting “20 µM”, the hemolysis at 1 h, 20 µM stood at 1.67 ± 0.175%. Also, the hemolysis at 1 h, 40 µM (40 µM) was 1.48 ± 0.034%. Under “60 µM”, the hemolysis at 1 h, 60 µM came out at 1.77 ± 0.155%. The hemolysis at 1 h, 80 µM (80 µM) is 1.25 ± 0.263%. The hemolysis at 1 h, 100 µM (100 µM) worked out at 2.04 ± 0.067%.
